Laboratory results from patent US7893077B2, “Bisaryl-sulfonamides” (Amgen Inc., priority 2004, dated 2011).
Like-named read-outs stand apart in the source and are kept apart here.

Sequences of proteins named here, by UniProt entry; tags and fusion partners are left off.
UniProt P37231, whole entry: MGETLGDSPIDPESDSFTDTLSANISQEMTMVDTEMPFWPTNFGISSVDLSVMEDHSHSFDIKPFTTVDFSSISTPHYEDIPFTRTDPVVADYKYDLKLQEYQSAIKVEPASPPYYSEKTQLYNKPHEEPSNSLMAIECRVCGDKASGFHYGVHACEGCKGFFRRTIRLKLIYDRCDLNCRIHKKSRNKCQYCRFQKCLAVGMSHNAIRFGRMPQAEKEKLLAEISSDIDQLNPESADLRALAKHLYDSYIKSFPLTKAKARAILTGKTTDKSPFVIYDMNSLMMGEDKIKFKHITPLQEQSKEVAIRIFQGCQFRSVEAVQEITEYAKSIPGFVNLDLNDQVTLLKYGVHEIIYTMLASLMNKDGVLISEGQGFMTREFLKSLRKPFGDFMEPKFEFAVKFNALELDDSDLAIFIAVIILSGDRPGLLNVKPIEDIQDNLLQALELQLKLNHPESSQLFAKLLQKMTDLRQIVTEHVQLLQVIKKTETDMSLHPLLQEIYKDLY

Target: PPARγ (Homo sapiens, UniProt P37231)
Assay: PPARγ ligand binding assay utilizing [3H]-BRL 49653 as the radioligand (filtration)
Conditions: read-out: PPARγ Binding IC50 Filtration, concentration required to reduce by 50% the specific binding of [3H]-BRL 49653
Method in brief: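 Displacement of 10 nM [3H]-BRL 49653 from PPARγ-GST fusion protein in Tris-HCl pH 8.0 buffer with KCl, DTT, BSA and NP-40, 15 min incubation, then glutathione-bead capture for 1 h. Bound radioactivity counted after filtration washes; IC50 is concentration giving 50% loss of specific binding, reported in ranges.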

In the case of `O=S(=O)(Nc1cc(Cl)c(Oc2ccc(S(=O)(=O)N3CC[S+]([O-])CC3)cc2)c(Cl)c1)c1ccc(C(F)(F)F)cc1Cl`, the IC50 is reported as < 1000 nM.

With `CC(=O)c1cc(NS(=O)(=O)c2ccc(OC(F)(F)F)cc2)cc(Cl)c1Oc1ccc(S(=O)(=O)N2CCOCC2)cc1` the IC50 was < 1000 nM.

With `CCN(CC)S(=O)(=O)c1ccc(Oc2c(Cl)cc(NS(=O)(=O)c3cc(C)c(Cl)cc3Cl)cc2C(C)=O)cc1` the IC50 was < 1000 nM.

With `CCOC(=O)CCCS(=O)(=O)c1ccc(Sc2c(Cl)cc(NS(=O)(=O)c3ccc(C(F)(F)F)cc3Cl)cc2Cl)cc1` the IC50 was < 1000 nM.

In the case of `CC(=O)c1cc(NS(=O)(=O)c2ccc(Cl)cc2Cl)cc(Cl)c1Oc1ccc(S(=O)(=O)N2CCOCC2)cc1`, the IC50 is reported as < 1000 nM.

`Cc1cc(Oc2ccc(NS(=O)(=O)c3ccc(Cl)cc3Cl)cc2C(=O)N(C)C(C)C)ccc1S(=O)(=O)N1CCCCC1` was tested, and the IC50 was < 1000 nM.

With `CCNC(=O)c1cc(NS(=O)(=O)c2ccc(C(F)(F)F)cc2Cl)ccc1Oc1ccc(S(=O)(=O)N2CCCC2)c(C)c1` the IC50 was < 1000 nM.

For `CC(=O)c1cc(NS(=O)(=O)c2ccccc2C(F)(F)F)cc(Cl)c1Oc1ccc(S(=O)(=O)N2CCOCC2)cc1`, the IC50 was < 10000 nM.

With `CC(C)NC(=O)c1nc(NS(=O)(=O)c2ccc(Cl)cc2Cl)ccc1Sc1ccc(S(=O)(=O)N2CCCCC2)cc1` [Compound 85, 6-(2,4-Dichloro-benzenesulfonylamino)-3-[4-(piperidine-1-sulfonyl)-phenylsulfanyl]-pyridine-2-carboxylic acid isopropylamide] the IC50 was < 1000 nM.

For `CC(=O)c1cc(NS(=O)(=O)c2ccc(C)c(Cl)c2)cc(Cl)c1Oc1ccc(S(=O)(=O)N2CCOCC2)cc1`, the IC50 was < 10000 nM.

For `CS(=O)(=O)c1ccc(S(=O)(=O)c2ccc(NS(=O)(=O)c3ccc(C(F)(F)F)cc3Cl)cc2Cl)cc1`, the IC50 was < 1000 nM.

`CCNC(=O)CCCS(=O)(=O)c1ccc(Sc2c(Cl)cc(NS(=O)(=O)c3ccc(C(F)(F)F)cc3Cl)cc2Cl)cc1` was tested, and the IC50 was < 1000 nM.

`Cc1cc(S(=O)(=O)Nc2ccc(Oc3ccc(S(=O)(=O)N4CCCCC4)cc3)c(COC(C)C)c2)c(Cl)cc1Cl` was tested, and the IC50 was < 1000 nM.

With `CON(C)C(=O)c1cc(NS(=O)(=O)c2ccc(C(F)(F)F)cc2Cl)ccc1Oc1ccc(S(=O)(=O)N2CCCCC2)cc1` the IC50 was < 10000 nM.

With `CCOC(=O)c1cc(NS(=O)(=O)c2cc(C)c(Cl)cc2Cl)ccc1Oc1ccc(S(=O)(=O)N2CCOCC2)c(C)c1` the IC50 was < 10000 nM.

For `CCCC(=O)c1cc(NS(=O)(=O)c2ccc(Cl)cc2Cl)ccc1Oc1ccc(S(=O)(=O)N(CC)CC)cc1`, the IC50 was < 1000 nM.

With `CCNC(=O)c1cc(NS(=O)(=O)c2ccc(Cl)c(C)c2Cl)ccc1Oc1ccc(S(=O)(=O)N2CCCC2)c(C)c1` the IC50 was < 1000 nM.

In the case of `COc1ccc(S(=O)(=O)Nc2cc(Cl)c(Oc3ccc(S(=O)(=O)N4CCOCC4)cc3)c(C(C)=O)c2)cc1OC`, the IC50 is reported as < 10000 nM.

`Cc1cc(S(=O)(=O)N2CCCCC2)ccc1Oc1c(Cl)cc(NS(=O)(=O)c2ccc(C(F)(F)F)cc2Cl)cc1Cl` was tested, and the IC50 was < 1000 nM.

In the case of `O=S(=O)(Nc1ncc(Sc2ccc3ccccc3c2)c(Cl)n1)c1ccc(Cl)cc1Cl`, the IC50 is reported as < 10000 nM.

With `CC(=O)c1cc(NS(=O)(=O)c2ccc(Cl)cc2Cl)ccc1Oc1ccc(S(=O)(=O)N2CCCCC2)c(C)c1` the IC50 was < 1000 nM.

`CCN(CC)S(=O)(=O)c1ccc(Oc2c(Cl)cc(NS(=O)(=O)c3ccc(OC(F)(F)F)cc3)cc2Cl)cc1` was tested, and the IC50 was < 1000 nM.

For `CCC(=O)c1cc(NS(=O)(=O)c2ccc(Cl)cc2Cl)ccc1Oc1ccc(S(=O)(=O)N2CCCCC2)cc1`, the IC50 was < 1000 nM.

`CCCC(=O)c1cc(NS(=O)(=O)c2ccc(Cl)cc2Cl)ccc1Oc1ccc(S(=O)(=O)N2CCCCC2)cc1` was tested, and the IC50 was < 1000 nM.

For `O=C(c1cc(NS(=O)(=O)c2ccc(C(F)(F)F)cc2Cl)ccc1Sc1ccc(S(=O)(=O)N2CCOCC2)cn1)C1CC1`, the IC50 was < 1000 nM.

`O=S(=O)(Nc1cc(Cl)c(Oc2ccc(S(=O)(=O)C3CCCCC3)cc2)c(Cl)c1)c1ccc(C(F)(F)F)cc1Cl` was tested, and the IC50 was < 1000 nM.

With `Cc1cc(Oc2ccc(NS(=O)(=O)c3cc(F)c(Cl)cc3F)cc2C(=O)NC(C)C)ccc1S(=O)(=O)N1CCCC1` the IC50 was < 10000 nM.

For `Cc1cc(Oc2ccc(NS(=O)(=O)c3ccc(C(F)(F)F)cc3Cl)cc2C(=O)NCC(C)C)ccc1S(=O)(=O)N1CCCCC1`, the IC50 was < 1000 nM.

In the case of `CN1CCN(S(=O)(=O)c2ccc(Oc3c(Cl)cc(NS(=O)(=O)c4ccc(C(F)(F)F)cc4Cl)cc3Cl)cc2)CC1`, the IC50 (tested form: TFA salt) is reported as < 1000 nM.

With `CCNC(=O)c1cc(NS(=O)(=O)c2ccc(OC(F)(F)F)cc2)ccc1Oc1ccc(S(=O)(=O)N2CCCC2)c(C)c1` the IC50 was < 10000 nM.

`O=S(=O)(Nc1cnc(Sc2ccc(S(=O)(=O)N3CCCCC3)cc2)nc1)c1ccc(Cl)cc1Cl` was tested, and the IC50 was < 10000 nM.

For `CCCC(=O)c1cc(NS(=O)(=O)c2ccc(Cl)cc2Cl)ccc1Sc1ccc(S(=O)(=O)N2CCOCC2)cn1`, the IC50 was < 1000 nM.

`O=S(=O)(Nc1cc(Cl)c(Oc2ccc(S(=O)(=O)N3CCSCC3)cc2)c(Cl)c1)c1ccc(C(F)(F)F)cc1Cl` was tested, and the IC50 was < 1000 nM.

`O=S(=O)(Nc1ccc(Oc2ccc(S(=O)(=O)N3CCCCC3)cc2)c(CN2CCOCC2)c1)c1ccc(Cl)cc1Cl` was tested, and the IC50 was < 1000 nM.

For `Cc1cc(Oc2ccc(NS(=O)(=O)c3ccc(C(F)(F)F)cc3Cl)cc2C(=O)N(C)C(C)C)ccc1S(=O)(=O)N1CCCCC1`, the IC50 was < 1000 nM.

For `O=C(O)c1cc(NS(=O)(=O)c2ccc(C(F)(F)F)cc2Cl)cc(Cl)c1Oc1ccc(S(=O)(=O)N2CCOCC2)cc1`, the IC50 was < 10000 nM.

`CCCC(=O)c1cc(NS(=O)(=O)c2ccc(Cl)cc2Cl)ccc1Oc1ccc(S(=O)(=O)N2CCOCC2)cc1` was tested, and the IC50 was < 1000 nM.

With `NC(=O)c1cc(NS(=O)(=O)c2ccc(Cl)cc2Cl)cc(Cl)c1Oc1ccc(S(=O)(=O)N2CCOCC2)cc1` the IC50 was < 10000 nM.

`CC(=O)c1cc(NS(=O)(=O)c2ccc(C#N)cc2Cl)cc(Cl)c1Oc1ccc(S(=O)(=O)N2CCOCC2)cc1` was tested, and the IC50 was < 1000 nM.

`CCN(CC)S(=O)(=O)c1ccc(Oc2ccc(NS(=O)(=O)c3ccc(Cl)cc3Cl)cc2C(C)=O)cc1` was tested, and the IC50 was < 10000 nM.

In the case of `CCOCc1cc(NS(=O)(=O)c2ccc(Cl)cc2Cl)ccc1Oc1ccc(S(=O)(=O)N2CCOCC2)cc1`, the IC50 is reported as < 1000 nM.

For `O=S(=O)(Nc1cc(Cl)c(Oc2ccc(S(=O)(=O)N3CCOCC3)cc2)c(Cl)c1)c1ccc(C(F)(F)F)cc1Cl`, the IC50 was < 1000 nM.

With `CC(=O)c1cc(NS(=O)(=O)c2cccc3ccccc23)cc(Cl)c1Oc1ccc(S(=O)(=O)N2CCOCC2)cc1` the IC50 was < 10000 nM.

For `O=C(c1cc(NS(=O)(=O)c2ccc(C(F)(F)F)cc2Cl)ccc1Oc1ccc(S(=O)(=O)N2CCCCC2)cc1)N1CCCC1`, the IC50 was < 1000 nM.

In the case of `CCOC(=O)c1cc(NS(=O)(=O)c2cc(C)c(Cl)cc2Cl)ccc1Oc1ccc(S(=O)(=O)N(CC)CC)c(C)c1`, the IC50 is reported as < 1000 nM.

In the case of `CCN(CC)S(=O)(=O)c1ccc(Oc2ccc(NS(=O)(=O)c3ccc(C(F)(F)F)cc3Cl)cc2Cl)cc1`, the IC50 is reported as < 1000 nM.

With `O=S(=O)(Nc1cc(Cl)c(Oc2ccc(S(=O)(=O)N3CCCC3)cc2)c(Cl)c1)c1ccc(C(F)(F)F)cc1Cl` the IC50 was < 1000 nM.

`CCc1cc(S(=O)(=O)N(CC)CC)ccc1Oc1c(Cl)cc(NS(=O)(=O)c2ccc(Cl)cc2Cl)cc1Cl` was tested, and the IC50 was < 1000 nM.

`Cc1cc(S(=O)(=O)Nc2cc(Cl)c(Oc3ccc(S(=O)(=O)N4CCOCC4)cc3)c(Cl)c2)c(Cl)cc1Cl` was tested, and the IC50 was < 1000 nM.

In the case of `CCOC(=O)c1cc(NS(=O)(=O)c2ccc(C(F)(F)F)cc2Cl)ccc1Oc1ccc(S(=O)(=O)N(CC)CC)c(C)c1`, the IC50 is reported as < 1000 nM.

For `CC(=O)c1cc(NS(=O)(=O)c2cccc(F)c2)cc(Cl)c1Oc1ccc(S(=O)(=O)N2CCOCC2)cc1`, the IC50 was < 10000 nM.

In the case of `Cc1cc(Oc2ccc(NS(=O)(=O)c3ccc(OC(F)(F)F)cc3Cl)cc2C(=O)NC(C)C)ccc1S(=O)(=O)N1CCCC1`, the IC50 is reported as < 10000 nM.

With `O=S(=O)(Nc1cc(Cl)c([S+]([O-])c2ccc(S(=O)(=O)N3CCCCC3)cc2)c(Cl)c1)c1ccc(C(F)(F)F)cc1Cl` (stereo not shown) the IC50 was < 1000 nM.

`O=S1(=O)CCN(S(=O)(=O)c2ccc(Oc3c(Cl)cc(NS(=O)(=O)c4ccc(C(F)(F)F)cc4Cl)cc3Cl)cc2)CC1` was tested, and the IC50 was < 1000 nM.

In the case of `Cc1cc(S(=O)(=O)Nc2ccc(Oc3ccc(S(=O)(=O)N4CCCC4)c(C)c3)c(C(=O)NC(C)C)c2)c(Cl)cc1Cl`, the IC50 is reported as < 1000 nM.

In the case of `CC(=O)c1cc(NS(=O)(=O)c2cccc(C)c2)cc(Cl)c1Oc1ccc(S(=O)(=O)N2CCOCC2)cc1`, the IC50 is reported as < 10000 nM.

`Cc1cc(S(=O)(=O)Nc2cc(Cl)c(Oc3ccc(S(=O)(=O)N4CCOCC4)cc3)c(C(=O)OC(C)C)c2)c(Cl)cc1Cl` was tested, and the IC50 was < 1000 nM.

In the case of `CC(=O)c1cc(NS(=O)(=O)c2ccccc2)cc(Cl)c1Oc1ccc(S(=O)(=O)N2CCOCC2)cc1`, the IC50 is reported as < 10000 nM.

In the case of `O=C(c1cc(NS(=O)(=O)c2ccc(Cl)cc2Cl)ccc1Oc1ccc(S(=O)(=O)N2CCCCC2)cc1)N1CCCC1`, the IC50 is reported as < 1000 nM.

`CCN(CC)S(=O)(=O)c1ccc(Oc2ccc(NS(=O)(=O)c3cc(C)c(Cl)cc3Cl)cc2C)cc1` was tested, and the IC50 was < 30000 nM.

With `COC(=O)CS(=O)(=O)c1ccc(Sc2c(Cl)cc(NS(=O)(=O)c3ccc(C(F)(F)F)cc3Cl)cc2Cl)cc1` the IC50 was < 1000 nM.

With `O=S(=O)(Nc1cc(Cl)c([S+]([O-])c2ccc(S(=O)(=O)N3CCCC3)cc2)c(Cl)c1)c1ccc(C(F)(F)F)cc1Cl` (stereo not shown) the IC50 was < 1000 nM.

In the case of `CCN(C(C)C)S(=O)(=O)c1ccc(Oc2c(Cl)cc(NS(=O)(=O)c3ccc(C(F)(F)F)cc3Cl)cc2Cl)cc1`, the IC50 is reported as < 1000 nM.

`CC(C)S(=O)(=O)c1ccc(Oc2c(Cl)cc(NS(=O)(=O)c3ccc(C(F)(F)F)cc3Cl)cc2Cl)cc1` was tested, and the IC50 was < 1000 nM.

With `CC(=O)c1cc(NS(=O)(=O)c2c(F)cc(F)cc2F)cc(Cl)c1Oc1ccc(S(=O)(=O)N2CCOCC2)cc1` the IC50 was < 10000 nM.

In the case of `CCC(=O)c1cc(NS(=O)(=O)c2ccc(C(F)(F)F)cc2Cl)ccc1Oc1ccc(S(=O)(=O)N2CCCCC2)cc1`, the IC50 is reported as < 1000 nM.

`Cc1cc(S(=O)(=O)Nc2ccc(Oc3ccc(S(=O)(=O)N4CCCCC4)c(C)c3)c(C(=O)NCC(C)C)c2)c(Cl)cc1Cl` was tested, and the IC50 was < 1000 nM.

For `COc1cccc(S(=O)(=O)Nc2cc(Cl)c(Oc3ccc(S(=O)(=O)N4CCOCC4)cc3)c(C(C)=O)c2)c1`, the IC50 was < 10000 nM.

In the case of `CC(=O)c1cc(NS(=O)(=O)c2ccc(C(F)(F)F)cc2Cl)ccc1Oc1ccc(S(=O)(=O)N2CCCCC2)c(C)c1`, the IC50 is reported as < 1000 nM.

In the case of `CN(C)C(=O)c1cc(NS(=O)(=O)c2ccc(Cl)cc2Cl)cc(Cl)c1Oc1ccc(S(=O)(=O)N2CCOCC2)cc1`, the IC50 is reported as < 1000 nM.
